Values joined by “and” are separate entries in the source; they are usually repeats but may differ in a detail not shown here. Equal values may be shown once. The entries are a selection whose mix differs from that of the whole data set. Active and inactive are the calls of the source. The call rests on the fitted dose curve; in most records, active means well fitted curve in the direction sought with a large enough effect; inconclusive means small, poorly fitted or top-dose-only effect, or another doubt; inactive means no such curve, though single readings can be large or run the other way.
Assay: qHTS Assay for Modulators of miRNAs and/orActivators of miR-21;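 further: % of control where 0% means no effect; miR-21 action dims this reporter so a rising signal means less miR-21 action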
Conditions: HeLa miR-21 FLuc reporter, luciferase, 48 h; at 38.3 µM (top of the series)

| SMILES | activity change, positive = activation |
| --- | --- |
| CC(=O)N1C2C3N(C(C)=O)C1C1N(C(C)=O)C(C(N1C(C)=O)N3C(C)=O)N2C(C)=O | inactive: -1.28% |
| COc1ccccc1OP(C)(=O)Nc1c(C)n(C)n(-c2ccccc2)c1=O (stereo not drawn) | inactive: -4.51% |
| CCc1ccc(OP(C)(=O)Nc2cccnc2)cc1 (stereo not drawn) | inactive: 7.47% |
| O=[N+]([O-])c1cc([N+](=O)[O-])c(CCNc2ccccc2)c([N+](=O)[O-])c1 | inactive: 20.6% |
| CP(=O)(Oc1ccccc1)N1CCOC1=O (stereo not drawn) | inactive: -2.85% |
| Cc1ccc(NP(=O)(Oc2ccccc2)Oc2ccccc2)nc1 | inactive: 5.22% |
| COc1ccc(OP(C)(=O)Nc2ccc(Br)cc2)cc1 (stereo not drawn) | inactive: -12.8% |
| COc1ccc(C2=NCC(CBr)S2)cc1 (stereo not drawn) | inactive: -6.38% |
| CCN(CC)CC(O)COC(=O)C(O)(c1ccccc1)C1CCCCC1 (stereo not drawn) | inactive: -6.04% |
| O=[N+]([O-])c1cccc(NC2=NCC(CBr)S2)c1 (stereo not drawn) | inactive: -0.978% |
| O=C(O)CNc1ccc([As](=O)(O)O)cc1 | inactive: 1.53% |
| CC(C)(C)C(=O)NC(Sc1ccncn1)C(Cl)(Cl)Cl (stereo not drawn) | inactive: -1.15% |
| O=[N+]([O-])c1ncn(CCn2ncnc2[N+](=O)[O-])n1 | inactive: 4.12% |
| O=C(Nc1cc([As](=O)(O)O)ccc1O)c1ccccc1 | inactive: -0.841% |
| CCOC(=O)c1ccc(NP(C)(=O)Oc2ccc(Cl)cc2)cc1 (stereo not drawn) | inactive: -5.48% |
| CP(=O)(OC12CC3CC(CC(C3)C1)C2)OC12CC3CC(CC(C3)C1)C2 | inactive: -1.42% |
| CCN(N=Nc1nonc1N)c1nonc1N | inactive: -4.88% |
| CP(=O)(Nc1ccc(Cl)cc1Cl)Oc1ccccc1 (stereo not drawn) | inactive: -6.7% |
| CP(=O)(OCCOc1ccccc1)OCCOc1ccccc1 | inactive: -8.69% |
| Nc1cccc2ccc([As](=O)(O)O)cc12 | inactive: 2.79% |
| Cc1nc2ccc3ccccc3c2o1.O=[N+]([O-])c1cc([N+](=O)[O-])c(O)c([N+](=O)[O-])c1 | inactive: -29.2% |
| O=[N+]([O-])c1cc([N+](=O)[O-])c(CCN2CCOCC2)c([N+](=O)[O-])c1 | inactive: 6.69% |
| COc1ccccc1OP(C)(=O)Nc1ccc(C)c(C)c1 (stereo not drawn) | inactive: -8.97% |
| Cc1ccc(NP(=O)(Oc2ccccc2F)Oc2ccccc2F)nc1 | inactive: -1.18% |

| SMILES | activity change, positive = activation |
| --- | --- |
| Cc1cc(SC(NC(=O)c2ccc(F)cc2)C(Cl)(Cl)Cl)ncn1 (stereo not drawn) | inactive: -8.8% |
| CCOP(=O)(Nc1ccccc1)OCC | inactive: -0.615% and inactive: -8.29% |
| COc1ccc(OP(C)(=O)Nc2ccccc2Br)cc1 (stereo not drawn) | inactive: -1.1% |
| CC(=O)Nc1ccc([As](=O)(O)O)cc1 | inactive: -2.81% |
| O=C(O)c1ccccc1[As](=O)(O)O | inactive: 7.39% |
| O=P(Nc1nc2ccc(Cl)cc2s1)(c1ccccc1)c1ccccc1 | inactive: 4.49% |
| Cc1cc(C)cc(OP(C)(=O)Nc2cccc(C(F)(F)F)c2)c1 (stereo not drawn) | inactive: -3.75% |
| COc1ccccc1OP(C)(=O)Nc1ccc(C)cc1C (stereo not drawn) | inactive: -6.86% |
| CP(=O)(Nc1ccccn1)Oc1ccccc1 (stereo not drawn) | inactive: -5.72% |
| CCc1ccc(OP(C)(=O)O)cc1 | inactive: -0.11% |
| Cc1c(NP(C)(=O)Oc2ccc(C(C)C)cc2)c(=O)n(-c2ccccc2)n1C (stereo not drawn) | inactive: 0.0525% |
| Nc1cc(N)c2nonc2c1[N+](=O)[O-] | inactive: -3.44% |
| CC(C)CC(=O)NC(Sc1ccc(Cl)cc1)C(Cl)(Cl)Cl (stereo not drawn) | inactive: 0.698% |
| O=C(NC(Sc1ccncn1)C(Cl)(Cl)Cl)c1ccccc1 (stereo not drawn) | inactive: -3.43% |
| Oc1ccccc1CNc1ccccn1 | inactive: -19.8% |
| Cc1ccc(OP(=O)(Nc2nccs2)Oc2ccc(C)cc2)cc1 | inactive: -0.875% |
| COc1ccccc1OP(=O)(Nc1ccc(C)cn1)Oc1ccccc1OC | inactive: -1.94% |
| COc1ccc(OP(C)(=O)Nc2ccccn2)cc1 (stereo not drawn) | inactive: -1.06% |
| CN1CCCC(OC(=O)C(c2ccccc2)c2ccccc2)C1 (stereo not drawn) | inactive: -4.88% |
| Clc1ccc(Cl)c(NC2=NCC(CBr)S2)c1 (stereo not drawn) | inactive: -4.17% |
| CN(C)CCOC(=O)C(O)(c1ccccc1)C1CCCC1 (stereo not drawn) | inactive: -3.31% |
| NC(=O)c1cc([N+](=O)[O-])cc([N+](=O)[O-])c1N | inactive: 7.16% |
| Cc1ccc(N/C(=N/P(=O)(N2CCOCC2)N2CCOCC2)N2CCOCC2)cc1 | inactive: 1.17% |
| COc1ccccc1OP(C)(=O)Nc1ccc(Br)cc1 (stereo not drawn) | inactive: -6.73% |

— PubChem BioAssay AID2288 (National Center for Advancing Translational Sciences (NCATS), 2010)
